Measured values reported in ChEMBL document CHEMBL1150372, “Synthesis, fluorine-18 radiolabeling, and in vitro characterization of 1-iodophenyl-N-methyl-N-fluoroalkyl-3-isoquinoline carboxamide derivatives as potential PET radioligands for imaging peripheral benzodiazepine receptor” (Bioorg Med Chem, 2008).

Amino acid sequences for entries named in this document (tags omitted).
UniProt P16257, whole entry, looked up: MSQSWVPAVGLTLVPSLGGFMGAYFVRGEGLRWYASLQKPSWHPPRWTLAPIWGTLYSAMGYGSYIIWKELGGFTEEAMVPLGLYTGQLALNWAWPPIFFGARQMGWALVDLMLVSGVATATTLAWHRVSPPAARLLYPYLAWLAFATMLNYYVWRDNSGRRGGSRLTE

What was measured:
[1] = target: Translocator protein (Rattus norvegicus) (UniProt P16257); assay: Ratio of Ki of drug to PK11195 for PBR in rat kidney mitochondrial membrane; format: cell membranes
[2] = target: Translocator protein (Rattus norvegicus) (UniProt P16257); assay: Ratio of Ki of drug to Ro54864 for PBR in rat kidney mitochondrial membrane; format: cell membranes

Row | SMILES | Ratio Ki [1] | Ratio Ki [2]
1 | CN(CCF)C(=O)c1cc2ccccc2c(-c2ccccc2I)n1 | 0.07 | 0.08
2 | CN(CCCF)C(=O)c1cc2ccccc2c(-c2ccc(I)cc2)n1 | 0.46 | 0.54
3 | CN(CCCF)C(=O)c1cc2ccccc2c(-c2ccccc2I)n1 | 111 | 131
